Tests used:
[1] = Pharmacokinetic study in mice, tail vein injection and oral cassette dosing; conditions: for Half-life T1/2 / Oral bioavailability F / Oral exposure AUC0-t: female Balb/c mice; for Half-life T1/2 / half-life in vivo compared with NVP-HDM201: intravenous injection 0.5 mpk; for Oral bioavailability F: iv 0.5 mpk, oral 2 mpk; for Oral exposure AUC0-t: oral administration 2 mpk; for half-life in vivo compared with NVP-HDM201 / oral bioavailability compared with NVP-HDM201 / plasma exposure compared with NVP-HDM201: mice; for oral bioavailability compared with NVP-HDM201 / plasma exposure compared with NVP-HDM201: oral administration 2 mg/kg
MDR1-MDCK cells = experiment: Two-way permeability evaluation in MDR1-MDCK cells
Caco-2 cells = experiment: Two-way permeability evaluation in Caco-2 cells
[2] = Caco-2, 2 μM, pH 7.4, 2.5 hours

Row | Compound | Half-life T1/2 [1] [h] | Oral bioavailability F [1] [%] | Oral exposure AUC0-t [1] [µM·h] | half-life in vivo compared with NVP-HDM201 [1] | oral bioavailability compared with NVP-HDM201 [1] | plasma exposure compared with NVP-HDM201 [1] | Average recovery rate A→B (MDR1-MDCK cells) [%] | Average recovery rate B→A (MDR1-MDCK cells) [%] | Average Papp A→B (MDR1-MDCK cells; 2 μM, pH 7.4, 2.5 hours) | Average Papp B→A (MDR1-MDCK cells; 2 μM, pH 7.4, 2.5 hours) | Average recovery rate A→B (Caco-2 cells; Caco-2) [%] | Average recovery rate B→A (Caco-2 cells; Caco-2) [%] | Average Papp A→B (Caco-2 cells; [2]) | Average Papp B→A (Caco-2 cells; [2])
1 | COc1ncc(-c2nc3c(n2C(C)C)C(c2ccc(Cl)cc2)N(c2ccc4c(c2)OCO4)C3=O)c(OC)n1 (single isomer, unassigned) | 1.73 | 64.4 | 9.626 | longer half-life | higher oral bioavailability | significantly greater plasma exposure | – | – | – | – | – | – | – | –
2 | COc1ncc(-c2nc3c(n2C(C)C)[C@@](C)(c2ccc(Cl)cc2)N(c2ccc4c(c2)OCO4)C3=O)c(OC)n1 | 1.18 | 97.4 | 10.377 | longer half-life | higher oral bioavailability | significantly greater plasma exposure | 80.87 | 78.5 | 3.38 10^−6 cm/s | 23.6 10^−6 cm/s | 73.22 | 85.58 | 1.15 10^−6 cm/s | 43.41 10^−6 cm/s

Source: patent US11639355B2, “Substituted pyrrolo[3,4-d]imidazoles as MDM2-p53 inhibitors” (LUOXIN PHARMACEUTICAL (SHANGHAI) CO., LTD., priority 2018, dated 2023)
